Measurements from ChEMBL document CHEMBL3885881, “DrugMatrix”.

What was measured:
[1] = species on record: Rattus norvegicus; assay: DrugMatrix - Regimen: Daily Repeat; type: toxicity, organism-based, Sprague-Dawley; design: regimen Daily Repeat, gender Male, age 6-8 weeks; conditions: in vivo, vehicle 100 % SALINE; for HEMATOCRIT / MONOCYTE / NEUTROPHIL / ABSOLUTE BASOPHIL / ABSOLUTE EOSINOPHIL / ABSOLUTE LYMPHOCYTE / ABSOLUTE MONOCYTE / ABSOLUTE SEGMENTED NEUTROPHIL / BASOPHIL / EOSINOPHIL / ERYTHROCYTE COUNT / HEMOGLOBIN / LEUKOCYTE COUNT / LYMPHOCYTE / MEAN CORPUSCULAR HEMOGLOBIN / MEAN CORPUSCULAR HEMOGLOBIN CONCENTRATION / MEAN CORPUSCULAR VOLUME / NUCLEATED RED BLOOD CELLS / PLATELET COUNT: tissue Blood; for TOTAL BILIRUBIN / URIC ACID / GLUCOSE / ALANINE AMINOTRANSFERASE / ALBUMIN / ALKALINE PHOSPHATASE / ASPARTATE AMINOTRANSFERASE / BLOOD UREA NITROGEN / CARBON DIOXIDE / CHLORIDE / CHOLESTEROL / CREATINE PHOSPHOKINASE / CREATININE / LACTATE DEHYDROGENASE / LIPASE / PHOSPHORUS / POTASSIUM / SODIUM / TOTAL PROTEIN: tissue Plasma
[2] = species on record: Rattus norvegicus; type: toxicity, organism-based, Sprague-Dawley; conditions: in vivo, sc, 0 mg/kg, 24 h, route mini-PUMP - SUBCUTANEOUS, dose level Control, time 1 day, vehicle 100 % SALINE
[3] = iv, 0.004 mg/kg, 72 h, dose level Low, time 3 day
[4] = iv, 0.004 mg/kg, 120 h, dose level Low, time 5 day
[5] = iv, 0.0375 mg/kg, 72 h, dose level M1, time 3 day
[6] = iv, 0.0375 mg/kg, 120 h, dose level M1, time 5 day
[7] = sc, 0 mg/kg, 72 h, route mini-PUMP - SUBCUTANEOUS, dose level Control, time 3 day
[8] = sc, 0 mg/kg, 120 h, route mini-PUMP - SUBCUTANEOUS, dose level Control, time 5 day
[9] = sc, 0 mg/kg, […], route mini-PUMP - SUBCUTANEOUS, dose level Control, time 14 day
[10] = sc, […], route mini-PUMP - SUBCUTANEOUS, dose 0.77 mg/Kg, dose level High, time 14 day

## CNC[C@H](O)c1ccc(O)c(O)c1 [EPINEPHRINE]
[1]; [3]
  HEMATOCRIT: 37.23%
  MONOCYTE: 0%
  NEUTROPHIL: 7%
  TOTAL BILIRUBIN: 0.17 mg/dL
  URIC ACID: 1.63 mg/dL
[1]; [4]
  HEMATOCRIT: 35.47%
  MONOCYTE: 0%
  NEUTROPHIL: 11.67%
  GLUCOSE: 170.67 mg/dL
  TOTAL BILIRUBIN: 0.17 mg/dL
  URIC ACID: 2.3 mg/dL
[1]; [5]
  ABSOLUTE BASOPHIL: 0 CELLS/uL
  ABSOLUTE EOSINOPHIL: 88 CELLS/uL
  ABSOLUTE LYMPHOCYTE: 7423.33 CELLS/uL
  ABSOLUTE MONOCYTE: 0 CELLS/uL
  ABSOLUTE SEGMENTED NEUTROPHIL: 1222 CELLS/uL
  BASOPHIL: 0%
  EOSINOPHIL: 1%
  ERYTHROCYTE COUNT: 5.23 x10E6/uL
  HEMATOCRIT: 32.57%
  HEMOGLOBIN: 12.4 G/DL
  LEUKOCYTE COUNT: 8.73 x10E3/uL
  LYMPHOCYTE: 85%
  MEAN CORPUSCULAR HEMOGLOBIN: 23.73 pg
  MEAN CORPUSCULAR HEMOGLOBIN CONCENTRATION: 38.1 G/DL
  MEAN CORPUSCULAR VOLUME: 62.33 fL
  MONOCYTE: 0%
  NEUTROPHIL: 14%
  NUCLEATED RED BLOOD CELLS: 0 /100WBC
  PLATELET COUNT: 1430.67 x10E3/uL
  ALANINE AMINOTRANSFERASE: 51 u/L
  ALBUMIN: 4.2 G/DL
  ALKALINE PHOSPHATASE: 368.67 u/L
  ASPARTATE AMINOTRANSFERASE: 89 u/L
  BLOOD UREA NITROGEN: 13.67 mg/dL
  CARBON DIOXIDE: 28.33 mmol/L
  CHLORIDE: 102.67 MEQ/L
  CHOLESTEROL: 75.33 mg/dL
  CREATINE PHOSPHOKINASE: 191.67 u/L
  CREATININE: 0.17 mg/dL
  GLUCOSE: 140.67 mg/dL
  LACTATE DEHYDROGENASE: 94.67 u/L
  LIPASE: 9 u/L
  PHOSPHORUS: 11.47 mg/dL
  POTASSIUM: 5.84 MEQ/L
  SODIUM: 150.1 MEQ/L
  TOTAL BILIRUBIN: 0.1 mg/dL
  TOTAL PROTEIN: 6 G/DL
  URIC ACID: 0.63 mg/dL
[1]; [6]
  ABSOLUTE BASOPHIL: 0 CELLS/uL
  ABSOLUTE EOSINOPHIL: 53.33 CELLS/uL
  ABSOLUTE LYMPHOCYTE: 13463.33 CELLS/uL
  ABSOLUTE MONOCYTE: 0 CELLS/uL
  ABSOLUTE SEGMENTED NEUTROPHIL: 1616.67 CELLS/uL
  BASOPHIL: 0%
  EOSINOPHIL: 0.33%
  ERYTHROCYTE COUNT: 5.77 x10E6/uL
  HEMATOCRIT: 36.07%
  HEMOGLOBIN: 13.67 G/DL
  LEUKOCYTE COUNT: 15.13 x10E3/uL
  LYMPHOCYTE: 89%
  MEAN CORPUSCULAR HEMOGLOBIN: 23.7 pg
  MEAN CORPUSCULAR HEMOGLOBIN CONCENTRATION: 37.9 G/DL
  MEAN CORPUSCULAR VOLUME: 62.57 fL
  MONOCYTE: 0%
  NEUTROPHIL: 10.67%
  NUCLEATED RED BLOOD CELLS: 0 /100WBC
  PLATELET COUNT: 1337 x10E3/uL
  ALANINE AMINOTRANSFERASE: 49.67 u/L
  ALBUMIN: 4.37 G/DL
  ALKALINE PHOSPHATASE: 404 u/L
  ASPARTATE AMINOTRANSFERASE: 70 u/L
  BLOOD UREA NITROGEN: 17.33 mg/dL
  CARBON DIOXIDE: 28 mmol/L
  CHLORIDE: 102.67 MEQ/L
  CHOLESTEROL: 68 mg/dL
  CREATINE PHOSPHOKINASE: 147.67 u/L
  CREATININE: 0.16 mg/dL
  LACTATE DEHYDROGENASE: 75 u/L
  LIPASE: 8.67 u/L
  PHOSPHORUS: 13.17 mg/dL
  POTASSIUM: 6.55 MEQ/L
  SODIUM: 147.57 MEQ/L
  TOTAL BILIRUBIN: 0.17 mg/dL
  TOTAL PROTEIN: 6.03 G/DL
  URIC ACID: 1.87 mg/dL
[1]; [7]
  HEMATOCRIT: 36.95%
  MONOCYTE: 2%
  NEUTROPHIL: 10.33%
  GLUCOSE: 136.83 mg/dL
  URIC ACID: 1.4 mg/dL
[1]; [8]
  HEMATOCRIT: 36.22%
  NEUTROPHIL: 17.67%
  CREATININE: 0.16 mg/dL
  GLUCOSE: 152.67 mg/dL
  TOTAL BILIRUBIN: 0.17 mg/dL
  URIC ACID: 1.27 mg/dL
[1]; [9]
  HEMATOCRIT: 35.4%
  MONOCYTE: 2.17%
  GLUCOSE: 182.33 mg/dL
  URIC ACID: 1.38 mg/dL
[1]; [10]
  HEMATOCRIT: 39.46%
  MONOCYTE: 2.4%
  NEUTROPHIL: 12.6%
  GLUCOSE: 180.4 mg/dL
  URIC ACID: 1.42 mg/dL
[2]; tissue Blood
  HEMATOCRIT: 34.52%
[2]; tissue Plasma
  GLUCOSE: 179.83 mg/dL
